Drawing on ChEMBL document CHEMBL2401698 (J Med Chem, 2013), this text covers Emax and Efficacy for one molecule.

In assay [1] the target is T1, Adenosine receptor A3 (Mus musculus) (UniProt Q61618).
T1 sequence (whole entry): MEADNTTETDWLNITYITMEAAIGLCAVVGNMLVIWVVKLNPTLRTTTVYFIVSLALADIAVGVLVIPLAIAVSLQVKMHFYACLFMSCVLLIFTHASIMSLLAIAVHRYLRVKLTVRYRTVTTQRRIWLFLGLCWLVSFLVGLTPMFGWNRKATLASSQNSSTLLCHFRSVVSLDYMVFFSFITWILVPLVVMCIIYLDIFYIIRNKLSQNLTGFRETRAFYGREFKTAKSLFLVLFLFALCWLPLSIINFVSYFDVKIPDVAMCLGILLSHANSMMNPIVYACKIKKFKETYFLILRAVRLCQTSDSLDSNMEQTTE
Nature of the assay: Agonist activity at mouse adenosine A3 receptor expressed in HEK293 cell membranes assessed as inhibition of forskolin-stimulated cAMP production preincubated for 30 mins prior to forskolin-treatment measured after 15 mins by ELISA relative to control. Format: functional, cell-based. Put shortly: (§1)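 2 × 10^5 cells/tube coincubated with forskolin (10 μM) and ligand for 15 min at 37 °C. Stopped with 1 N HCl; cAMP by competitive binding assay.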
Background: cAMP levels reflect the balance of adenylyl cyclase and phosphodiesterase activity.

The target in assay [2] is T1, Adenosine receptor A3 (Mus musculus). Nature of the assay: Activity at mouse adenosine A3 receptor expressed in HEK293 cell membranes assessed as inhibition of forskolin-stimulated cAMP production preincubated for 30 mins prior to forskolin-treatment measured after 15 mins by ELISA relative to 2-chloro-N6-(3-iodobenzyl)adenosine-5'-N-methyluronamide. Format: functional, cell-based. Put shortly: as §1

Consider `O[C@@H]1[C@H](O)[C@@H]2C[C@@H]2[C@H]1n1cnc2c(NCCc3ccccc3)nc(C#Cc3ccccc3)nc21`, for which the Emax (commonly the maximal effect, on the per cent scale that the assay sets) in assay [1] was found to be 7%. Moreover, the Efficacy in assay [2] was 14.3%.
